Results taken from US10188756B2, “Imaging histone deacetylases with a radiotracer using positron emission tomography” (THE GENERAL HOSPITAL CORPORATION, priority 2013, dated 2019).

Chains of the proteins cited; added tags and fusions are not shown. Residues count along the entry.
UniProt Q9UBN7, whole entry: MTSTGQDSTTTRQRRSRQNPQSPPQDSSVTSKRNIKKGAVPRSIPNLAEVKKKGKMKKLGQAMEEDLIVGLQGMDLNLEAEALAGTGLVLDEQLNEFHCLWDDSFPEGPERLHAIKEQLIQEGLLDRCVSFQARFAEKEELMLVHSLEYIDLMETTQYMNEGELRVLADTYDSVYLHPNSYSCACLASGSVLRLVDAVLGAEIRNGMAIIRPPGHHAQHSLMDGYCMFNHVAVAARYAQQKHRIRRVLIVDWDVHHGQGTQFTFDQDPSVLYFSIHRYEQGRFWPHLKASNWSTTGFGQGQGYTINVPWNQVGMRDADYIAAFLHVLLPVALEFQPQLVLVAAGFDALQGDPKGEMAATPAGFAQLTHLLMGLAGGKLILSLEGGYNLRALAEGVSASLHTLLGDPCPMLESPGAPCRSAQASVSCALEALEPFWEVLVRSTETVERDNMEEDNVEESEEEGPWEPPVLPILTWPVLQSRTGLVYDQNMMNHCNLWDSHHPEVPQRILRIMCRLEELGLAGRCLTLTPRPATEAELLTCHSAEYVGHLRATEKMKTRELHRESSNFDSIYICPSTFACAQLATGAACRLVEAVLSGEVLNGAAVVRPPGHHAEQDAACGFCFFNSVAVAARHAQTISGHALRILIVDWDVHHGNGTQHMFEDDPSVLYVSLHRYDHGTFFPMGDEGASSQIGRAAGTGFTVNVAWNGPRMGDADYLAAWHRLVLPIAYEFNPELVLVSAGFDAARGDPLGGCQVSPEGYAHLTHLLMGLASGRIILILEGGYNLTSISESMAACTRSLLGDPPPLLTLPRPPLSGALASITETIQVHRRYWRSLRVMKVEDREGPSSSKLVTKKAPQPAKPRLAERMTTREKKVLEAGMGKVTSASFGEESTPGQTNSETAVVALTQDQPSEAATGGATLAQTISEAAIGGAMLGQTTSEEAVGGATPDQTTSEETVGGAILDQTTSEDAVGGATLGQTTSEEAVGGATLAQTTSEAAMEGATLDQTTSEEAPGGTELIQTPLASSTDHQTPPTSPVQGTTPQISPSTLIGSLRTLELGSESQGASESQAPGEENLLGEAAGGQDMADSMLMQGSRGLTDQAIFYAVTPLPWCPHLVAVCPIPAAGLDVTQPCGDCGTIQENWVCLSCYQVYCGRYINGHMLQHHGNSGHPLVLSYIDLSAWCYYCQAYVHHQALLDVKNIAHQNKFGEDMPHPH
UniProt P56524, whole entry: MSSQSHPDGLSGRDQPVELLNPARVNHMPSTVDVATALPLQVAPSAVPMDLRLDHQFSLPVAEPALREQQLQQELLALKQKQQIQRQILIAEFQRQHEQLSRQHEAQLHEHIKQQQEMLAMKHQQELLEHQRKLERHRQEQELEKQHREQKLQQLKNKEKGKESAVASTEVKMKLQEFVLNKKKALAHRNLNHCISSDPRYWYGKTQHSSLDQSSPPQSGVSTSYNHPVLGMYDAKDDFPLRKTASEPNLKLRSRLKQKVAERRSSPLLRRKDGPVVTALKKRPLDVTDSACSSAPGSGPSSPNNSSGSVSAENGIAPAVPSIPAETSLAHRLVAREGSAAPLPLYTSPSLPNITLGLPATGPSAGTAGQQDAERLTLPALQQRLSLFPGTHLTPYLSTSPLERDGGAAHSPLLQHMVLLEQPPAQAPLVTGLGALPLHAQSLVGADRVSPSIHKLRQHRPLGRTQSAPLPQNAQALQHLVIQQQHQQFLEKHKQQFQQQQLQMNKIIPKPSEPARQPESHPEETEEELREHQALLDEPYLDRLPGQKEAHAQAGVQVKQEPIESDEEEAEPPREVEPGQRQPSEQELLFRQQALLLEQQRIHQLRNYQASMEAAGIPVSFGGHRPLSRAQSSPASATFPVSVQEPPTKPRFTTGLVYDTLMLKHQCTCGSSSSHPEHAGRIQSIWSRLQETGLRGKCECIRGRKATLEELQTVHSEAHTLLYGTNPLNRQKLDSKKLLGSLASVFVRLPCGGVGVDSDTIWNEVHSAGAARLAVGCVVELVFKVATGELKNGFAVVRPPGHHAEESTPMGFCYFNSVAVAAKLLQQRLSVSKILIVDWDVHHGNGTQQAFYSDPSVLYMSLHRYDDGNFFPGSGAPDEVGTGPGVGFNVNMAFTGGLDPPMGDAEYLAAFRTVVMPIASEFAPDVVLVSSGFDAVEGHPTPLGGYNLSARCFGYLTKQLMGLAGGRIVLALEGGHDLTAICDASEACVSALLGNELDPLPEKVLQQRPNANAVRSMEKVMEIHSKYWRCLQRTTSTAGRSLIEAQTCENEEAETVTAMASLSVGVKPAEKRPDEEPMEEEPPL
UniProt Q9UKV0, whole entry: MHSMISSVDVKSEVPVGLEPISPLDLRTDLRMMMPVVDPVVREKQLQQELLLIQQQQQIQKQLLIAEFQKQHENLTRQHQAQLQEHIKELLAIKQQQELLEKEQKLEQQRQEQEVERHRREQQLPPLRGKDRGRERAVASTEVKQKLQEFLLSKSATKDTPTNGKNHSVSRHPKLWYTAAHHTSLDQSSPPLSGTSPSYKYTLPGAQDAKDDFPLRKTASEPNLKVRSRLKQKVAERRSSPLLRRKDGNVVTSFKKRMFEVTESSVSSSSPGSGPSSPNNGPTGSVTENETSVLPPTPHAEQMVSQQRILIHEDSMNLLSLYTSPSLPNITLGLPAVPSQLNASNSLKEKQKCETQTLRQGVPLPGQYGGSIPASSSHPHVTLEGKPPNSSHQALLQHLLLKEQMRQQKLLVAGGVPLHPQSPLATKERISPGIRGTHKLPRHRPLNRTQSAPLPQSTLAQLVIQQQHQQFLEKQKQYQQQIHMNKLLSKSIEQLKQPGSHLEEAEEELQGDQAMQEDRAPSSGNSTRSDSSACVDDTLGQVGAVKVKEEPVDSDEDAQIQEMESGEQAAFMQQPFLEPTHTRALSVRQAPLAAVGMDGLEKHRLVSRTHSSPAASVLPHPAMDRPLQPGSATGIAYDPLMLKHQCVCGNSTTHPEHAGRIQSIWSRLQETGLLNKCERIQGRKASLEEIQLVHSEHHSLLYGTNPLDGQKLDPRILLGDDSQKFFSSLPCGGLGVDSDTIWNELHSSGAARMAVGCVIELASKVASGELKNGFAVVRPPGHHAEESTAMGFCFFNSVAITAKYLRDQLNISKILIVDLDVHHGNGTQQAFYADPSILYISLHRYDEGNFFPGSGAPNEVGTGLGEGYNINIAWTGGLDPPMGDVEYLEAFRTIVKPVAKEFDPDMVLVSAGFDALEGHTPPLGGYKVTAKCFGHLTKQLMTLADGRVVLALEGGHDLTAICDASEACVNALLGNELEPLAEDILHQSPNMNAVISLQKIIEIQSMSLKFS
UniProt Q8WUI4, whole entry: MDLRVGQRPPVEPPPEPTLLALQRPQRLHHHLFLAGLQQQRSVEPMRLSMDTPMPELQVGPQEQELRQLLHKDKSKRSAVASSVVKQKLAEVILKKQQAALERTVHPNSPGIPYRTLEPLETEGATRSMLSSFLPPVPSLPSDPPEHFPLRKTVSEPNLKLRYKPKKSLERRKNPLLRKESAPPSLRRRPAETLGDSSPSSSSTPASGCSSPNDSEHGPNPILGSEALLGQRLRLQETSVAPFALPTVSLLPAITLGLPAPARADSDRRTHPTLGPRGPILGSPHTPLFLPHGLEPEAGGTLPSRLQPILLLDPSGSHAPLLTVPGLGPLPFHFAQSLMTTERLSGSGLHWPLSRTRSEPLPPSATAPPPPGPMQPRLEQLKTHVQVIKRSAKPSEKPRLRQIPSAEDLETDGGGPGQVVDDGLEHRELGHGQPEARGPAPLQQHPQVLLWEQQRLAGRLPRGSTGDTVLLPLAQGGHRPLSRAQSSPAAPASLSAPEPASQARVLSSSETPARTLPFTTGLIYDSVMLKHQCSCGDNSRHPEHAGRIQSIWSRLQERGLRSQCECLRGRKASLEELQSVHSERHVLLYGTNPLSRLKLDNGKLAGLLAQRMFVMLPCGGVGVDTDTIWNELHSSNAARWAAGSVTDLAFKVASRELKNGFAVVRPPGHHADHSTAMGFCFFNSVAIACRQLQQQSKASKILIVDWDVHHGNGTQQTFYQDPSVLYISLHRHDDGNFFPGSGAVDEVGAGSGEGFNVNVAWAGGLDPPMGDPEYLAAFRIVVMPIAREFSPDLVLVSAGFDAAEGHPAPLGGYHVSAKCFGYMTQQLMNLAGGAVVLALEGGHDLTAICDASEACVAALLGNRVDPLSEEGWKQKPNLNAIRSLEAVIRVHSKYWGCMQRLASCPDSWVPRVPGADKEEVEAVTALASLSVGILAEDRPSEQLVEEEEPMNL
UniProt Q9UQL6, whole entry: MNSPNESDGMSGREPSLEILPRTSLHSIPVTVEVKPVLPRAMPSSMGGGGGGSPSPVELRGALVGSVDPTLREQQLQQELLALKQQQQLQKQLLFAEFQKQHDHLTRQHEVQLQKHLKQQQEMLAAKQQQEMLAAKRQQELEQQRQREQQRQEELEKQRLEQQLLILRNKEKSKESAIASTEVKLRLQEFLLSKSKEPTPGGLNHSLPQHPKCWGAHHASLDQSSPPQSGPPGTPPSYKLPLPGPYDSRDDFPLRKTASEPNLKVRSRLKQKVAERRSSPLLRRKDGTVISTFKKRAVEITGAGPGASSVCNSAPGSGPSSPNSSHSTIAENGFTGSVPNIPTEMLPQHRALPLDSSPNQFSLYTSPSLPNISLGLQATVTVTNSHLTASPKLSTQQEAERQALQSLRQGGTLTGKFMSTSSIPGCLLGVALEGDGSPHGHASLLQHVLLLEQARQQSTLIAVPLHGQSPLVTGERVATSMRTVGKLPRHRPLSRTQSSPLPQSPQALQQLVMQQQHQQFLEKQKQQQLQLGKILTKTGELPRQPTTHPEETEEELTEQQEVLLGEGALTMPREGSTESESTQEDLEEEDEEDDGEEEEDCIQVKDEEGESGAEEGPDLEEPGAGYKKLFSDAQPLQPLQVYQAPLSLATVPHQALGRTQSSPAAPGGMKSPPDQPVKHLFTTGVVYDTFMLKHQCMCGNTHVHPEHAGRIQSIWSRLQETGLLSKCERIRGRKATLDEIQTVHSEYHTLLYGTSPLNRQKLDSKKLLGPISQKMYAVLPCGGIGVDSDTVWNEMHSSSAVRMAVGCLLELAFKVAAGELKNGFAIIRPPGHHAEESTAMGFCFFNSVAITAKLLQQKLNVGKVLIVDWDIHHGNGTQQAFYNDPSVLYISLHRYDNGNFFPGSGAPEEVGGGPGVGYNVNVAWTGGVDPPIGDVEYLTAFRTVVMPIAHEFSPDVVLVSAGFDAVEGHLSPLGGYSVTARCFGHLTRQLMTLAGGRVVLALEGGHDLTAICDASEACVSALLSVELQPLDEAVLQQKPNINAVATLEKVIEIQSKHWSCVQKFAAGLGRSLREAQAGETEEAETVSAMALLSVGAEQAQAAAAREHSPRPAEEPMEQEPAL
UniProt Q13547, whole entry: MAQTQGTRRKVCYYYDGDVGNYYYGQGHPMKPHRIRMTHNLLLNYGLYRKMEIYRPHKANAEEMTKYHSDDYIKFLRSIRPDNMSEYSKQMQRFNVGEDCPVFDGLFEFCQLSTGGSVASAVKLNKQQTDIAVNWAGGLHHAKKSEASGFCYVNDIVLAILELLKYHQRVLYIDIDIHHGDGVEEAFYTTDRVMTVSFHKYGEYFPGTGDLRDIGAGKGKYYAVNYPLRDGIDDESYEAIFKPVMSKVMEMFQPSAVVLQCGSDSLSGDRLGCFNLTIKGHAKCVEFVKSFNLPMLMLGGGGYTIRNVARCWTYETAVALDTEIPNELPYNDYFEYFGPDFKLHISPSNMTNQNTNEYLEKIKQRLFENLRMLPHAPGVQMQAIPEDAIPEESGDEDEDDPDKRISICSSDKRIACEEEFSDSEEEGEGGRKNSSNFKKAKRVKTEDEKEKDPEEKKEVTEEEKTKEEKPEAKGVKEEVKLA
UniProt O15379, whole entry: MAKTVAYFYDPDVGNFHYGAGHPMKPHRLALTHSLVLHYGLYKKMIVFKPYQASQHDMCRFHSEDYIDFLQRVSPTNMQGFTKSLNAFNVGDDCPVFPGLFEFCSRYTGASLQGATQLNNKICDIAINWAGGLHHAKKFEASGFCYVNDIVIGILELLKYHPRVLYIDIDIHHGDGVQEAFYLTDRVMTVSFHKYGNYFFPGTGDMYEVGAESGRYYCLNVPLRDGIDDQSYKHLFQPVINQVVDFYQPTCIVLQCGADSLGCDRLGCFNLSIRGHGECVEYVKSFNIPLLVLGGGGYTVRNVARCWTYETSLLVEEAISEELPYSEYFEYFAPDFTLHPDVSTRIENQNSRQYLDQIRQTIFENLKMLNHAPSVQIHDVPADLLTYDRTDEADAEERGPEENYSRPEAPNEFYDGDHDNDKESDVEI
UniProt Q9Y618, 395-489 partner limits assumed: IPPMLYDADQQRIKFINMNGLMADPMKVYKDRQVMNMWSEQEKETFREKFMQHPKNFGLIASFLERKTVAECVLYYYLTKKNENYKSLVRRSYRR

Legend:
Test in all cases: HDAC inhibition assay
HDAC6 = HDAC6 (Homo sapiens (Human), UniProt Q9UBN7); type: biochemical; settings: read-out: IC50 HDAC6
HDAC8 = HDAC8 (Homo sapiens (Human), UniProt Q9BY41); type: biochemical; settings: read-out: IC50 HDAC8
HDAC4 = HDAC4 (Homo sapiens (Human), UniProt P56524); settings: read-out: IC50 HDAC4
HDAC9 = HDAC9 (Homo sapiens (Human), UniProt Q9UKV0); settings: read-out: IC50 HDAC9
HDAC7 = HDAC7 (Homo sapiens (Human), UniProt Q8WUI4); settings: read-out: IC50 HDAC7
HDAC5 = HDAC5 (Homo sapiens (Human), UniProt Q9UQL6); settings: read-out: IC50 HDAC5
HDAC1 = HDAC1 (Homo sapiens (Human), UniProt Q13547); settings: read-out: IC50 HDAC1
HDAC3 = HDAC3 (Homo sapiens (Human), UniProt O15379); settings: read-out: IC50 HDAC3

IC50 (HDAC6): 16.5 nM | IC50 (HDAC8): 2230 nM | IC50 (HDAC4): 2530 nM | IC50 (HDAC9): > 20000 nM | IC50 (HDAC7): > 40000 nM | IC50 (HDAC5): 244 nM | IC50 (HDAC1): 24 nM | IC50 (HDAC3): 32.7 nM
Compound: CN(Cc1cccc(/C=C/C(=O)NO)c1)C12CC3CC(CC(C3)C1)C2
